What was measured:
Format in all cases: functional, cell-based
[1] = biological target: T1, Metabotropic glutamate receptor 2 (Rattus norvegicus, UniProt P31421); assay: Agonist activity at SNAP tagged rat mGlu2 transfected HEK293 cells by TR-FRET assay
[2] = biological target: T1, Metabotropic glutamate receptor 2; assay: Agonist activity at SNAP tagged rat mGlu2 transfected HEK293 cells preincubated with antagonist LY-341495 followed by compound addition by TR-FRET assay
Outline: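 SNAP-tagged rat mGlu2 in HEK293 labeled 24 h post-transfection, 1 h at 37 °C with 100 nM SNAP-Lumi4-Tb and 60 nM SNAP-Green. Cells preincubated with LY341495 (1 μM in methods; 0.3 μM stated in text), washed, agonist dose-response added. TR-FRET: 337 nm excitation, 620/520 nm emission, acceptor ratio of early over late time windows.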

Chains of the proteins cited; added tags and fusions are not shown. Lines headed by an entry give the natural chain unless they say otherwise; changes in a name come on top.
UniProt P31421: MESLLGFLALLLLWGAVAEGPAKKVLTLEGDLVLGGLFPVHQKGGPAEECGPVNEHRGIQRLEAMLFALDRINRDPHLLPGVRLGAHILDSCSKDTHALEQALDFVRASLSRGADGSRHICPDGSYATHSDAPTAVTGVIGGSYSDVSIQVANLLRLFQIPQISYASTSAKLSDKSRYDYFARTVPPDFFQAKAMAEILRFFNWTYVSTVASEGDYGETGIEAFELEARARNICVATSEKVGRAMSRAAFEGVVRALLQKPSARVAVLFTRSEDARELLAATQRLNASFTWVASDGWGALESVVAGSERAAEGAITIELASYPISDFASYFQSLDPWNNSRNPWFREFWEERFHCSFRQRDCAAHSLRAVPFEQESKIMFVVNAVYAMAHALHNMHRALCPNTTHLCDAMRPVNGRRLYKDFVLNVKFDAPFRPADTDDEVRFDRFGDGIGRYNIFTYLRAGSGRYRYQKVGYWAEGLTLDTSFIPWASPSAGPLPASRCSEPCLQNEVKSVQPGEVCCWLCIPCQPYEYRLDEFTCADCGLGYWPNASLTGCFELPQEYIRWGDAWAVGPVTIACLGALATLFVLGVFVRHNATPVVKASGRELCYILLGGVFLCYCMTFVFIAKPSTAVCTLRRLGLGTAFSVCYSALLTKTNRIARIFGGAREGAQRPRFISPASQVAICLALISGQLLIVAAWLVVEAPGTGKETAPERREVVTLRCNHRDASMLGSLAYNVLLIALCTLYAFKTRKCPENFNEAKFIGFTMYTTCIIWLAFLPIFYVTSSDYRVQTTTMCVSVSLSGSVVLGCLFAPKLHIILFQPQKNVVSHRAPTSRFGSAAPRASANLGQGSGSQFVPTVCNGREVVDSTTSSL
UniProt P23385: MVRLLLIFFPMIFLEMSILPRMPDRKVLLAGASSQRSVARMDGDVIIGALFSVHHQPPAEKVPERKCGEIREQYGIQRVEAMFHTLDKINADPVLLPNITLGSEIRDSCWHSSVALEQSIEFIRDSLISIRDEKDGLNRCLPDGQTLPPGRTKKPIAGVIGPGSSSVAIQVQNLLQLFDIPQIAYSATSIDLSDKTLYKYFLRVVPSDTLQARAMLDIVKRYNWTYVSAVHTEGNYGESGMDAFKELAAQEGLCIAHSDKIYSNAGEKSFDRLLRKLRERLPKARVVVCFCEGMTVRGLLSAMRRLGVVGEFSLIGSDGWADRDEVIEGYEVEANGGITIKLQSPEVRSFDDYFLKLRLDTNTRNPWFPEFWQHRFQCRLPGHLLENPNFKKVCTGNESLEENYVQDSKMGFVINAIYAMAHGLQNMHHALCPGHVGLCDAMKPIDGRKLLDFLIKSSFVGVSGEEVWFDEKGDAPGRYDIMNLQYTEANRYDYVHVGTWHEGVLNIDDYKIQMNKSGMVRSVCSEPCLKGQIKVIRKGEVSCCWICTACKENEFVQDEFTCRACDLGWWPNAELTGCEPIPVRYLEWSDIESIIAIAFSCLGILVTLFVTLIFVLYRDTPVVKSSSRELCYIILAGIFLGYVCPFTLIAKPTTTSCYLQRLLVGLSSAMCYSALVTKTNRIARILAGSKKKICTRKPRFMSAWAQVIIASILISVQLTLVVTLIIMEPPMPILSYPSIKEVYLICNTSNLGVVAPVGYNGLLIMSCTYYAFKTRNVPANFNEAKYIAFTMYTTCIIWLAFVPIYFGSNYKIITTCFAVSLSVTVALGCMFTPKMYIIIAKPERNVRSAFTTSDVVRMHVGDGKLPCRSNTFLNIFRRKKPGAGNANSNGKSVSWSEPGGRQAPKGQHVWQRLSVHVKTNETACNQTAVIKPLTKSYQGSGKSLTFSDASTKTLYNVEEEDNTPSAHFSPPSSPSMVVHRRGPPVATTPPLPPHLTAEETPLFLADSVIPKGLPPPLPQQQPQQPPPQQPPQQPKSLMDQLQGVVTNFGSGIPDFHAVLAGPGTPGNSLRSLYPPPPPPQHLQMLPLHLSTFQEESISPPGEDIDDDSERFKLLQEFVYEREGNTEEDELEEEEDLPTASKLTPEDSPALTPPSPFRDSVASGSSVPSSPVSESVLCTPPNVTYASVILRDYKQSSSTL

[3] = biological target: Metabotropic glutamate receptor 1 (Rattus norvegicus, UniProt P23385); assay: Agonist activity at rat mGlu1 transfected in HEK293 cells by IP-one HTRF assay
Outline: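 HEK293 cells transiently electroporated with rat receptor plasmid plus EAAC1 Glu transporter, plated 150 000 cells/well on polyornithine, serum-free Glutamax DMEM ≥2 h before assay. At 24 h, washed in Krebs buffer and stimulated 30 min with compound in 50 mM LiCl. IP1 read by HTRF, at least duplicates, EC50 from 2–5 experiments.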

Row | Compound | EC50 ([1]; read-out: EC50) [nM] | EC50 ([1]; read-out: pEC50 (converted)) [nM] | EC50 [2] [nM] | EC50 ([3]; read-out: EC50) [nM] | EC50 ([3]; read-out: pEC50 (converted)) [nM]
1 | N[C@@]1(C(=O)O)CC[C@H]2[C@H](C(=O)O)[C@H]21 | 63 | 229 | 229 | – | –
2 | N[C@@H](Cn1oc(=O)[nH]c1=O)C(=O)O [QUISQUALATE] | – | – | – | 79 | 60.3
